Test results as given in patent publication US10800732B2, “Substituted malonamides and their use as antibacterial drugs” (National Taiwan University, priority 2015, dated 2020).

System: MRSA (ATCC 33592)
Assay: Survival of MRSA-infected C57BL/6 mice, intraperitoneal administration

## O=C(Nc1ccc(Cl)c(C(F)(F)F)c1)C(CCCl)C(=O)Nc1ccc(Cl)c(C(F)(F)F)c1 [SC5005]
1 mg/kg i.p. at 1 h, 24 h and 48 h post-infection, N=5
  mice surviving after the treatment: only one
3 mg/kg i.p. at 1 h, 24 h and 48 h post-infection, N=5
  mice surviving after the treatment: only one
10 mg/kg i.p. at 1 h, 24 h and 48 h post-infection, N=5
  mice surviving till the end of the study: three of the mice
Effective dose for 50% of the group, i.p.
  ED50: ~10 mg/kg
